Experimental data as given in patent US20030203406.

Tested on: MAS tripeptide (Met-Ala-Ser)

For “recombinant human MetAP-1 expressed in Sf9 insect cells”, the Km was 8.5 mM and the kcat was 0.75 s⁻¹.
